# Values of other authors in PMC4330465 (Journal of Computer-Aided Molecular Design, 2014).
# By UniProt entry, the sequences of proteins in these tests, tags left out. Residues count along the entry.
# UniProt P22303, 32-614 limits assumed: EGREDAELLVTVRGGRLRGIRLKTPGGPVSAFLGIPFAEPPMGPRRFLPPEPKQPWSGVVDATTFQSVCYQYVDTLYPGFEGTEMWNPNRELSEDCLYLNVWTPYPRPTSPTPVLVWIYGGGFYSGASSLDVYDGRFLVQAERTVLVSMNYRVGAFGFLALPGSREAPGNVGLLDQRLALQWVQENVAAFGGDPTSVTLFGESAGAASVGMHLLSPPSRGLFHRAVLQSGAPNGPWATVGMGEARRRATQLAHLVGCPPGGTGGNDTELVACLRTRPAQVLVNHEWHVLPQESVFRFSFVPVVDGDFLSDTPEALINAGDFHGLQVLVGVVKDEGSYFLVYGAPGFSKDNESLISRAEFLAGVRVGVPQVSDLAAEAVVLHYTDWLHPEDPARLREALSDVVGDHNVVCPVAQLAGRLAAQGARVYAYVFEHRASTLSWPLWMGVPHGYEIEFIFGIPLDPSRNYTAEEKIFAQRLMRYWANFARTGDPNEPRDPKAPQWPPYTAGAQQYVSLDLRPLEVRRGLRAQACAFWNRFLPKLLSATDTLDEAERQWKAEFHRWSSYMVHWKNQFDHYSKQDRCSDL
# Molecular target: Recombinant Homo sapiens AChE (Homo sapiens, UniProt P22303)
# Settings: test set Set3 (Table S15); cited from earlier work
row,Compound,IC50
1,CCN(CC)CCNS(=O)(=O)c1ccc(Cl)cc1F,94 µM
2,CCN(CC)CCNS(=O)(=O)Cc1ccc(C(F)(F)F)cc1,17 µM
3,CCN(CC)CCNS(=O)(=O)Cc1ccc(Br)cc1,11 µM
4,CCN(CC)CCNS(=O)(=O)c1ccc(Cl)cc1,91 µM
5,CCN(CC)CCNS(=O)(=O)Cc1ccc(C)cc1,51 µM
6,CCN(CC)CCNS(=O)(=O)c1ccc(Oc2c(Cl)cccc2[N+](=O)[O-])cc1,0.7 µM
7,CCN(CC)CCNS(=O)(=O)Cc1ccc(Cl)c(Cl)c1,6.8 µM
8,CCN(CC)CCNS(=O)(=O)Cc1ccc(F)cc1,42 µM
9,CCN(CC)CCNS(=O)(=O)c1ccc([N+](=O)[O-])cc1,162 µM
10,CCN(CC)CCNS(=O)(=O)c1ccccc1,33 µM
11,CCN(CC)CCNS(=O)(=O)c1ccc(F)cc1,65 µM
12,CCN(CC)CCNS(=O)(=O)c1cccc2ccccc12,38 µM
13,CCN(CC)CCNS(=O)(=O)Cc1ccccc1,134 µM
14,CCN(CC)CCNS(=O)(=O)c1ccccc1F,42 µM
15,CCN(CC)CCNS(=O)(=O)c1cccc(Cl)c1,19 µM
16,CCN(CC)CCNS(=O)(=O)c1ccc(OC)cc1,118 µM
17,CCN(CC)CCNS(=O)(=O)c1ccc(F)c(F)c1,51 µM
18,CCN(CC)CCNS(=O)(=O)c1cccc(C(F)(F)F)c1,24 µM
